Chains of the proteins cited; added tags and fusions are not shown. Residues count along the entry.
UniProt Q9QYN8, 1-397 isoform Q9QYN8-3: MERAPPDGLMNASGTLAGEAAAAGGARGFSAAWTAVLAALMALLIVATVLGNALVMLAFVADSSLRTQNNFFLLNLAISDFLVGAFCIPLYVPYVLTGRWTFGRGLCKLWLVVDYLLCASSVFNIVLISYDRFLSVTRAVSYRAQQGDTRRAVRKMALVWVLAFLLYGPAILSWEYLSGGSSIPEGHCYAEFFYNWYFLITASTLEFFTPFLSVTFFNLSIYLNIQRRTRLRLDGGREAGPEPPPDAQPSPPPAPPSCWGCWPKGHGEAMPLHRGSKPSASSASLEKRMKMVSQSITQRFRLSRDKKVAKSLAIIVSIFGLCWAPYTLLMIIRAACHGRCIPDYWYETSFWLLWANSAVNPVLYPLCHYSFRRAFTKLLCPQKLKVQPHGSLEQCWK

According to US6559140B2 (Abbott Laboratories, priority 2000, dated 2003):

Target: H3 receptor (Rattus norvegicus, UniProt Q9QYN8)
Test: H3 receptor binding, (3H)-N-α-methylhistamine displacement in rat cortical membranes
Conditions: male Sprague-Dawley rat brain cortical membranes, 30 minutes at 25° C., Cheng-Prusoff, geometric mean values of 2-10 separate experiments
Method: Briefly, male Sprague-Dawley rat brain cortices were homogenized (1 g tissue/10 mL buffer) in 50 mM Tris-HCl/5 mM EDTA containing protease inhibitor cocktail (Calbiochem) using a polytron set at 20,500 rpm. Homogenates were centrifuged for 20 minutes at 40,000×g. The supernatant was decanted, and pellets were weighed. The pellet was resuspended by polytron homogenization in 40 mL 50 mM Tris-HCl/5 mM EDTA with protease inhibitors and centrifuged for 20 minutes at 40,000×g. […] Test compounds were added to the incubation mixtures prior to initiating the incubation assay by addition of the membranes. Thioperamide (3 μM) was used to determine nonspecific binding. Binding incubations were conducted for 30 minutes at 25° C. and terminated by addition of 2 mL of ice cold 50 mM Tris-HCl (H 7.7) and filtration through 0.3% polyethylenimine-soaked Unifilter plates (Packard). These filters were washed 4 additional times with 2 mL of ice-cold 50 mM Tris-HCl and dried for 1 hour. Radioactivity was determined using liquid scintillation counting techniques. Results were analyzed by Hill transformation and Ki values were determined using the Cheng-Prusoff equation.

Substance “N-{(1R)-2-[4-(3-{4-[5-(cyclopentylmethyl)-1,2,4-oxadiazol-3-yl]-3-fluorophenoxy}propyl)-1,4-diazepan-1-yl]-1-methyl-2-oxoethyl}-2-furamide [Example 145]” has a Ki of 1.39 nM.
